scFv variants of Ab-14 (light chain) against a SARS-CoV-2 spike peptide

Target peptide (SARS-CoV-2 spike, HR2 region): PDVDLGDISGINAS

Parent scFv Ab-14: VH joined to VL by the linker GGGGSGGGGSGGGGS. Changes lie in the light chain CDRs alone.
VH: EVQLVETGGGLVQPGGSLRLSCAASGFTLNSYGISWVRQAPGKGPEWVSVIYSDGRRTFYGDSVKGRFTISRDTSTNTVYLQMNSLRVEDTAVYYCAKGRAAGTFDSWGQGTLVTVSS
VL: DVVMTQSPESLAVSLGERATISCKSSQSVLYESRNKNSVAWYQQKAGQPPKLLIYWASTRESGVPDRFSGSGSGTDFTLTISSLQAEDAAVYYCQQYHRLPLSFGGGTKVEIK

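The parent was found by panning a naive human phage display library on the peptide. These sequences belong to a second round, designed from the earlier measurements on random variants of the parent. Their group label is 14L_Ctrl (Ctrl: baseline library sampled from a position-specific scoring matrix, with some repeated check sequences). Affinity was read by AlphaSeq, a pooled yeast mating assay with surface-displayed partners. The frequency of each diploid, read from paired DNA barcodes, reflects how well the two displayed proteins bind. Each replicate has its own calibration line, from reference interactions of the BCL2 family. The assay was run in six technical replicates.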

Variants are written as CDR1, CDR2 and CDR3 of the light chain (limits as in the source). Parent: KSSQSVLYESRNKNSVA, WASTRES, QQYHRLPLS. Numbers give log10(Kd / nM), so 0 is 1 nM and 3 is 1 µM. Smaller is tighter. A pair that was not seen in that replicate is written "nd"; this usually means weak binding, but a binder can also be missed.

| # | CDR-L1 | CDR-L2 | CDR-L3 | log10 Kd (nM) by replicate | control signals |
|---|---|---|---|---|---|
| 1 | KSSQSVEYESRNKNSVA | RASTREP | QQYHRLPLS | 1.35 1.02 0.78 0.96 1.02 0.88 | 1 of 18 (2.14) |
| 2 | KSSQSVLYESRNKNSVA | WDSTRES | QQYHRLPLS | nd nd nd nd nd nd | 0 of 18 |
| 3 | DSNQSVIYESRNKNSVA | EASTRES | QQYHRLPLS | nd nd 1.35 nd nd nd | 0 of 18 |
| 4 | KSSQNVLYESTNPNSVA | MASTRES | QQYHRLPLS | 0.96 1.11 0.94 0.25 1.40 0.99 | 0 of 18 |
| 5 | KSKDSVLYESTNKNSVA | WASTRES | QQYHRLPLS | nd nd nd nd 2.56 nd | 0 of 18 |
| 6 | KSSQSVVYESQNNNSVA | DASTRES | QQYHRLPLS | 0.48 0.07 0.68 0.20 0.99 0.60 | 0 of 18 |
| 7 | KSSQSWLYESHNKNSVA | GASTRSS | QQYDRMPLS | 0.76 0.65 0.55 0.74 0.49 1.04 | 1 of 18 (1.72) |
| 8 | KSIQSTLYESRNKNSVA | WASTRES | QQVHRLPLS | nd nd nd nd nd nd | 1 of 18 (1.76) |
| 9 | KVSQSLLKESTNKNSVA | WASTREH | NQYHRMPLS | nd nd nd nd nd nd | 0 of 18 |
| 10 | KSSQSVLYESRNKNSVA | WAITRMS | QQYHRLPLS | nd nd nd nd nd nd | 0 of 18 |
| 11 | KSRQSVLYESRNKNSVA | WASTRES | QQYHRLPLS | nd 1.75 2.90 nd 2.40 2.42 | 2 of 18 (1.52) |
| 12 | KSSQSQLYESRKKNSVA | WASTLES | QQYHRLPLS | nd nd nd nd nd nd | 0 of 18 |
| 13 | KSSQSVLYESGNKNSVA | WASTRES | QQYHRLELS | nd nd nd nd nd 3.84 | 0 of 18 |
| 14 | KSSQSVLTESRNKNSVA | WAMTRES | QQYHRYPLS | nd nd nd nd nd nd | 0 of 18 |
| 15 | KSSQSVLYESRNKNDVA | DASTRES | QQYHRLPLS | 0.30 0.18 0.07 0.11 0.18 0.32 | 1 of 18 (3.15) |
| 16 | KSSQSVLYESRNKNSVA | WASTRES | QQIHRLPLS | nd nd nd nd nd nd | 0 of 18 |
| 17 | KSYISALYESRNKNSVA | QASTRES | QQYHRLPLT | 1.30 1.19 1.15 1.14 0.89 1.18 | 1 of 18 (3.08) |
| 18 | KVSQSVLTESQNKNSVA | GASHRES | QWYHRLPNS | nd 2.51 2.66 2.94 nd 2.33 | 1 of 18 (2.48) |
| 19 | KISQSVSYESRNKNSVA | WASTRES | QQYHRIPLS | 1.93 2.23 1.79 1.89 2.07 1.97 | 0 of 18 |
| 20 | KDSQSVQTESRNKNSVA | SASTRES | QQYHRLPLS | 0.63 1.01 0.95 1.24 0.80 1.06 | 2 of 18 (2.60) |
| 21 | KSEQSLLYESRNKNSVA | WASTRES | QQYHRLPAS | nd nd nd nd nd nd | 0 of 18 |
| 22 | KDSQSVLYESRNKNSVA | WASMRES | QQYHRLPLS | nd nd nd nd 2.33 nd | 0 of 18 |
| 23 | KSSQSVQYESENKNSVA | WASTRES | QQWARLPLS | nd nd nd nd nd nd | 1 of 18 (0.97) |
| 24 | KSSQSQLYESRNENHVA | WESTRES | QQYHRLPLS | nd nd nd nd nd nd | 1 of 18 (1.78) |
| 25 | DWSQSVLYESHNKNSVA | WASTRES | QQYHRLPLS | 1.33 nd nd 2.03 2.05 1.65 | 0 of 18 |
| 26 | KSSQSVLYESMNENSVA | WASTRES | QQYHRLPLS | nd nd 2.23 nd nd nd | 2 of 18 (2.37) |
| 27 | KSSQSPLHDSRNKNSVA | WASTRES | QQYHRLPLS | nd 2.09 nd 1.29 nd nd | 0 of 18 |
| 28 | KSSQPLLYESSNKNSVA | MASTRES | QQYHRLPLS | 0.60 0.68 1.00 0.61 0.31 1.29 | 0 of 18 |
| 29 | KSMQSVLYGSRNKNSVA | YASTRES | QQYHRLPLS | nd nd nd nd nd nd | 0 of 18 |
| 30 | YSSDSVLYESRNKNSVA | WASTRES | QTYHRLPLS | nd nd nd 2.04 nd nd | 0 of 18 |
| 31 | KSSQSVLYESRNTNSVA | WASIREF | QQYHRLPLS | nd nd nd nd nd nd | 0 of 18 |
| 32 | KSSDSVLYESRNKNSVA | TASTRES | QQYHRLPLS | 0.31 0.99 0.42 0.57 0.16 1.16 | 1 of 18 (2.26) |
| 33 | KSSQSVLYESRSKNSVA | WASTRES | QQYHRLPLS | nd nd 1.83 nd 2.86 2.33 | 0 of 18 |
| 34 | SSSQSVLYESRLKNSVA | QASTRES | QQYHRLPLS | 0.77 0.70 0.83 0.75 0.58 1.03 | 0 of 18 |
| 35 | KSSQSVLQESRNKNSVA | WASTRES | QQYHRLPLS | 1.32 nd nd 1.83 1.82 nd | 0 of 18 |
| 36 | KISQPVLYESRNKNSIA | KATTRES | QQYHRLPLV | 0.71 0.65 0.12 0.28 -0.07 1.09; 0.74 0.86 0.60 1.01 0.72 1.06; 0.82 0.47 0.61 0.49 0.65 0.72; 1.41 1.30 1.37 1.20 1.19 1.53; 0.75 0.61 0.74 0.97 0.82 1.09 | 2 of 90 (2.38) |
| 37 | KSSQSPLYESRNKNSVA | QASTRES | QQYHRLPLS | 0.42 0.04 -0.16 -0.10 0.15 0.19 | 0 of 18 |
| 38 | KSSQSVLGESNNKNSVA | WASTRES | QSYHRLPLS | 0.96 1.71 1.80 1.55 1.31 1.49 | 4 of 18 (3.34) |
| 39 | KMSQSVLYESRNKYSVA | WASEREE | QQYHRLPLS | nd 1.99 1.41 2.02 nd 2.13 | 0 of 18 |
| 40 | KSSQSVLPESRNKNSVA | QASTRES | QQYHKLPLS | 0.97 1.08 0.89 1.35 0.82 1.00 | 2 of 18 (4.39) |
| 41 | KSSQSVLYESNNKNSVA | WASTREA | QQPHRLPLD | nd nd nd nd nd nd | 1 of 18 (1.58) |
| 42 | KSSQSVLYESRNKNSVA | TASTRES | QQYPRNPLS | nd nd nd nd nd nd | 0 of 18 |

Repeated from above, the 5 best binders with a signal in all replicates:

| CDR-L1 | CDR-L2 | CDR-L3 | log10 Kd (nM) by replicate | control signals |
|---|---|---|---|---|
| KSSQSPLYESRNKNSVA | QASTRES | QQYHRLPLS | 0.42 0.04 -0.16 -0.10 0.15 0.19 | 0 of 18 |
| KSSQSVLYESRNKNDVA | DASTRES | QQYHRLPLS | 0.30 0.18 0.07 0.11 0.18 0.32 | 1 of 18 (3.15) |
| KSSQSVVYESQNNNSVA | DASTRES | QQYHRLPLS | 0.48 0.07 0.68 0.20 0.99 0.60 | 0 of 18 |
| KSSDSVLYESRNKNSVA | TASTRES | QQYHRLPLS | 0.31 0.99 0.42 0.57 0.16 1.16 | 1 of 18 (2.26) |
| KSSQSWLYESHNKNSVA | GASTRSS | QQYDRMPLS | 0.76 0.65 0.55 0.74 0.49 1.04 | 1 of 18 (1.72) |

A sequence that the file lists under several names has all its replicates listed entry by entry, parted by semicolons. The authors averaged sequences with at least three values out of six and counted those with two or fewer as poor binders. Empty control strains, which show no peptide, gave a signal in 4% of pairings with all light chain designs; the median was 2.64 and 95% of these signals were weaker than 1.59. No background was subtracted. Also given: how often the same scFv was detected with the empty control strains, with their mean in brackets. A sequence measured in both rounds can read differently, since the two assays cover different ranges. Of ten entries with the parent sequence, four were seen in most replicates (averages 0.34 to 2.37), three in one and three in none, so single entries are noisy.

Values reported by Li et al. 2023, doi:10.1038/s41467-023-39022-2 (FLAb copy).